{"source": "ChEMBL document CHEMBL4321785", "about": "“Challenges and Opportunities for Therapeutics Targeting the Voltage-Gated Sodium Channel Isoform NaV1.7” (J Med Chem, 2019)", "type_in_all_cases": "cell-based", "key": {"Homo sapiens [1]": {"species": "Homo sapiens", "assay": "Selectivity index, ratio of IC50 for inhibition of human Nav1.5 expressed in HEK293 cells by electrophysiology assay to IC50 for inhibition of human Nav1.7 expressed in HEK293 cells by electrophysiology assay"}, "Homo sapiens [2]": {"species": "Homo sapiens", "assay": "Selectivity index, ratio of IC50 for inhibition of human Nav1.8 expressed in HEK293 cells by electrophysiology assay to IC50 for inhibition of human Nav1.7 expressed in HEK293 cells by electrophysiology assay"}, "Homo sapiens [3]": {"species": "Homo sapiens", "assay": "Selectivity index, ratio of IC50 for inhibition of human Nav1.6 expressed in HEK293 cells by electrophysiology assay to IC50 for inhibition of human Nav1.7 expressed in HEK293 cells by electrophysiology assay"}, "Homo sapiens [4]": {"species": "Homo sapiens", "assay": "Selectivity index, ratio of IC50 for inhibition of human Nav1.1 expressed in HEK293 cells by electrophysiology assay to IC50 for inhibition of human Nav1.7 expressed in HEK293 cells by electrophysiology assay"}, "Homo sapiens [5]": {"species": "Homo sapiens", "assay": "Selectivity index, ratio of IC50 for inhibition of human Nav1.4 expressed in HEK293 cells by electrophysiology assay to IC50 for inhibition of human Nav1.7 expressed in HEK293 cells by electrophysiology assay"}, "Homo sapiens [6]": {"species": "Homo sapiens", "assay": "Selectivity index, ratio of IC50 for inhibition of human Nav1.3 expressed in HEK293 cells by electrophysiology assay to IC50 for inhibition of human Nav1.7 expressed in HEK293 cells by electrophysiology assay"}, "Homo sapiens [7]": {"species": "Homo sapiens", "assay": "Selectivity index, ratio of IC50 for inhibition of human Nav1.2 expressed in HEK293 cells by electrophysiology assay to IC50 for inhibition of human Nav1.7 expressed in HEK293 cells by electrophysiology assay"}}}
{"smiles": "NC(=O)[C@@H]1CC[C@H](c2ccc(OCc3ccccc3F)cc2)N1", "values": [{"measurement": "Ratio IC50", "setting": "Homo sapiens [1]", "result": 2.5}, {"measurement": "Ratio IC50", "setting": "Homo sapiens [2]", "result": "< 1"}, {"measurement": "Ratio IC50", "setting": "Homo sapiens [3]", "result": "< 1"}, {"measurement": "Ratio IC50", "setting": "Homo sapiens [4]", "result": "< 1"}, {"measurement": "Ratio IC50", "setting": "Homo sapiens [5]", "result": "< 1"}, {"measurement": "Ratio IC50", "setting": "Homo sapiens [6]", "result": "< 1"}, {"measurement": "Ratio IC50", "setting": "Homo sapiens [7]", "result": "< 1"}]}
